PGC1a acetyl inh: lowers PGC1a acetylation signal in U2OS cells; AlphaScreen anti-acetyl-lysine; with virally co-expressed GCN5 acetyltransferase; inhibition, % at 15.6 µM; 0.17% of 350,000 active;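 active means every replicate shows inhibition of at least 40%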;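 further: 0% = neutral control wells and 100% = positive control wells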
E-sel inducer: E-selectin induction on HUVECs. P16581. HUVEC E-selectin immunofluorescence imaging; normalized: neutral wells 0, TNF-alpha wells 100. activation, % at 7.58 µM. 0.37% of 260,000 active. AID 686992;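 active means mean E-selectin-positive cell signal at least 10% of the positive control, reached in at least 60% of replicates, without over 20% cell loss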
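Test system – human umbilical vein endothelial cells (HUVEC), E-selectin induction · Input – 3,000 HUVEC seeded per well · Buffer or medium – EGM-2, gelatin · Compound dosing – single-point compound dose · Detection – immunofluorescence imaging · Measure – percent E-selectin-positive cells · Controls – TNF-alpha high, DMSO low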
esBAF inh: inhibitors of esBAF chromatin remodeling in mouse ES cells; Bmi1-luciferase knock-in reporter, 24 h; 100% = twice the neutral-well signal; reporter increase, % at 12.5 µM; 2% of 350,000 active; in the data active means activation above about 40%;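 further: 0% = median of the plate's neutral control wells and 100% = double that signal; a rise in the Bmi1 reporter signal indicates esBAF inhibition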
Statin myotox sup: protects C2C12 myotubes from simvastatin toxicity; ATP luminescence, 48 h; scaled: DMSO 0, geranylgeraniol control 100; rescue of ATP level, % at 7.49 µM; 0.78% of 330,000 active;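 active means mean ATP rescue above about 67%, or every replicate alone reaching that limit, limit read from the data, passing the limit was not always enough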;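 further: myotubes were challenged with 10 µM simvastatin during compound exposure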
Yeast UUG start: modulators of start codon recognition fidelity in yeast; AID 602363; hit rate 0.13% among 350,000; activity score, % at 18.7 µM; S. cerevisiae UUG-firefly luciferase reporter, luminescence/redox ratio;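 active = replicate mean at a twofold rise or more, about +100% in these data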;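 note: firefly luciferase made from a UUG start codon reports start codon fidelity; reporter light over untreated wells divided by growth signal over untreated wells; some hits fall short of that in this replicate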
PglD DTNB: PglD (C. jejuni) enzyme inhibition; purified PglD enzyme, DTNB colorimetric CoA detection; inhibition, % at 12.5 µM; 0.098% of 360,000 active; in the data active means inhibition above about 16%, passing the limit was not always enough
An asterisk follows results filed as active; . = no result. Compounds with a hit are over-represented: about 2.8% of the library has one in this group of screens.

Short forms: A = PGC1a acetyl inh; B = E-sel inducer; C = esBAF inh; D = Statin myotox sup; E = Yeast UUG start; F = PglD DTNB
NC(=O)C1CCN(C(=O)c2cnn(-c3ccccc3)c2NC(=O)c2ccco2)CC1
  A: 9	B: .	C: -5	D: 98*	E: -4	F: 1
COc1ccc(CCNC(=O)c2cnn(-c3ccc(C)c(C)c3)c2NC(=O)c2ccco2)cc1OC
  A: -10	B: .	C: -9	D: -2	E: -12	F: -1
Cc1ccc(-n2ncc(C(=O)N3CCc4ccccc4C3)c2NC(=O)c2ccco2)cc1C
  A: 10	B: .	C: -7	D: 77*	E: .	F: .
COCC#Cc1ccc2c(c1)O[C@@H](CN(C)Cc1ccccn1)[C@H](C)CN([C@@H](C)CO)S2(=O)=O
  A: -3	B: 0	C: -12	D: -26	E: .	F: 10
NC(=S)c1ccc(OCCCc2ccccc2)cc1
  A: -7	B: .	C: 71*	D: 6	E: 12	F: 3
CS(=O)(=O)Nc1ccc2c(c1)[C@H]1C[C@H](CC(=O)NCc3cccc(F)c3)O[C@H](CO)[C@H]1O2
  A: 4	B: 0	C: 3	D: -4	E: -10	F: 1
COc1cccc(COc2ccc3c(C)cc(=O)oc3c2)c1
  A: -8	B: 0	C: 51*	D: 9	E: -14	F: 4
COc1ccc2c(C)cc(=O)oc2c1
  A: -1	B: 2	C: -1	D: -1	E: -13	F: 0
Cc1cc(=O)oc2cc(OCCc3ccccc3)ccc12
  A: .	B: 0	C: 67*	D: -8	E: -15	F: -4
CCSc1nc(N)nc(-c2cccs2)c1C#N
  A: -4	B: .	C: 49*	D: -21	E: -26	F: 2
COc1ccc(C(=O)Nc2cccc3ccccc23)cc1
  A: .	B: 0	C: 52*	D: 33	E: -13	F: -1
O=C(NNC(=O)c1cccc2ccccc12)c1ccc2c(c1)OCO2
  A: .	B: .	C: 54*	D: 2	E: 2	F: -10
COc1ccc(C(=O)Nc2ccccc2NC(=O)c2ccc(OC)cc2)cc1
  A: .	B: .	C: 1	D: 13	E: -8	F: 0
COc1ccc(C(=O)NNC(=O)c2cccc3ccccc23)cc1
  A: 3	B: 0	C: 54*	D: 0	E: -10	F: -3
CCOc1ccc(NC(=O)c2cccc3ccccc23)cc1
  A: -3	B: .	C: 43*	D: -10	E: -2	F: -14
Cc1noc(C)c1NC(=O)N(C)C[C@@H]1Oc2ccc(NC(=O)Cc3cn(C)c4ccccc34)cc2C(=O)N([C@H](C)CO)C[C@H]1C
  A: 2	B: .	C: -6	D: -16	E: 3	F: 4
CCCNC(=O)N1CC2(CCN(S(=O)(=O)CC)CC2)c2c(n(C)c3cc(OC)ccc23)[C@H]1CO
  A: -10	B: 0	C: .	D: .	E: .	F: .
N#C[C@H]1[C@@H](c2ccc(-c3cccc(F)c3)cc2)[C@@H](CO)N1C(=O)NC1CCCCC1
  A: -21	B: 0	C: .	D: .	E: .	F: .
COc1cccc2c1C(=O)c1c(O)c3c(c(O)c1C2=O)C[C@@](O)(C(C)=O)C[C@@H]3O[C@H]1C[C@H](N)[C@H](O)[C@H](C)O1
  A: 51*	B: .	C: -78	D: -167	E: -51	F: -3
Cc1noc(C)c1NC(=O)N(C)C[C@@H]1Oc2c(NS(=O)(=O)c3ccc(Cl)cc3)cccc2C(=O)N([C@@H](C)CO)C[C@@H]1C
  A: -2	B: 0	C: 2	D: .	E: 5	F: 1
CC(C)(C)n1ncc2c(=O)n(CC(=O)NC3CCCCC3)cnc21
  A: .	B: .	C: 44*	D: 9	E: -7	F: -3
O=C(Cn1cnc2c(nnn2Cc2ccc(F)cc2)c1=O)NC1CCCC1
  A: 13	B: .	C: 2	D: 141*	E: -17	F: -2
Cc1ccc(S(=O)(=O)N(C)C[C@H]2Oc3ccc(NC(=O)C4CC4)cc3CC(=O)N([C@H](C)CO)C[C@@H]2C)cc1
  A: 5	B: 0	C: -15	D: 23	E: 52	F: 15*
C[C@H](CO)N1C[C@H](C)[C@@H](CN(C)S(C)(=O)=O)Oc2ccc(NC(=O)C3CCCCC3)cc2CC1=O
  A: 7	B: 27*	C: 0	D: 11	E: 2	F: -3
Cc1ccc(S(=O)(=O)N(C)C[C@H]2Oc3ccc(NC(=O)C4CC4)cc3CC(=O)N([C@@H](C)CO)C[C@H]2C)cc1
  A: 5	B: 0	C: -1	D: 6	E: 19	F: 4
C[C@H]1CN([C@@H](C)CO)C(=O)Cc2cc(NC(=O)C3CCCCC3)ccc2O[C@H]1CN(C)C(=O)NC1CCCCC1
  A: -1	B: 307*	C: 0	D: -31	E: 1	F: 1
C[C@H](CO)N1C[C@H](C)[C@H](CN(C)S(C)(=O)=O)Oc2ccc(NC(=O)C3CCCCC3)cc2CC1=O
  A: 0	B: -6	C: -6	D: 22	E: 5	F: -1
CN=Cc1cc(-c2ccccc2)sc1O
  A: 5	B: .	C: 64*	D: 7	E: 0	F: -4
C[C@@H]1CN([C@@H](C)CO)C(=O)c2cccc(NS(=O)(=O)c3ccc(Cl)cc3)c2O[C@@H]1CN(C)C(=O)Nc1ccc(F)cc1
  A: -14	B: 0	C: -8	D: 37	E: 1	F: 1
CCCn1cnc2c(SCc3ccccc3Cl)nc(N)nc21
  A: 9	B: 0	C: 48*	D: 1	E: -16	F: -5
CCCCn1cnc2c(SCc3ccccc3F)nc(N)nc21
  A: -2	B: 1	C: 50*	D: -3	E: .	F: .
Cc1cc2c(SCc3ccccc3Cl)nc(N)nc2nc1C
  A: 1	B: 88*	C: -1	D: -2	E: -12	F: 3
Nc1cc(N)nc(SCc2ccccc2Cl)n1
  A: .	B: 0	C: -3	D: 4	E: -1	F: -3
CCNC(=O)C[C@@H]1CC[C@@H]2[C@H](COc3ccc(NC(=O)c4cccs4)cc3C(=O)N2C)O1
  A: -4	B: 0	C: -1	D: -18	E: -3	F: 1
CCCc1ccc(C(=O)NNc2ccccc2F)cc1
  A: 0	B: 55*	C: .	D: .	E: .	F: .
CCc1ccc(C(=O)NNc2ccccc2F)cc1
  A: 5	B: 0	C: 30	D: 20	E: -3	F: 0
C[C@H](CO)N1C[C@H](C)[C@@H](CN(C)S(C)(=O)=O)OCCCC[C@H](C)Oc2ccc(NC(=O)CCCN(C)C)cc2C1=O
  A: -6	B: 1	C: 0	D: 5	E: 17	F: -1
C/C=C/c1ccc([C@@H]2[C@@H](CN(C)S(C)(=O)=O)N(C(C)=O)[C@H]2CO)cc1
  A: 2	B: 0	C: -7	D: 1	E: -9	F: -1
COc1ccc(C(=O)Nc2sc(C)c(C)c2CN2CC(C)OC(C)C2)cc1 (stereo not drawn)
  A: -2	B: .	C: 72*	D: 0	E: .	F: .
COc1ccc(CCNC(=O)c2nonc2N)cc1
  A: 2	B: .	C: 48*	D: -7	E: -18	F: 1

Random excerpt: three entries already listed
Short forms: A = PGC1a acetyl inh; B = E-sel inducer; C = esBAF inh; D = Statin myotox sup; E = Yeast UUG start; F = PglD DTNB
CCCCn1cnc2c(SCc3ccccc3F)nc(N)nc21
  A: -2	B: 1	C: 50*	D: -3	E: .	F: .
C[C@H](CO)N1C[C@H](C)[C@@H](CN(C)S(C)(=O)=O)OCCCC[C@H](C)Oc2ccc(NC(=O)CCCN(C)C)cc2C1=O
  A: -6	B: 1	C: 0	D: 5	E: 17	F: -1
C/C=C/c1ccc([C@@H]2[C@@H](CN(C)S(C)(=O)=O)N(C(C)=O)[C@H]2CO)cc1
  A: 2	B: 0	C: -7	D: 1	E: -9	F: -1

Other entries follow:
Short forms: A = PGC1a acetyl inh; B = E-sel inducer; C = esBAF inh; D = Statin myotox sup; E = Yeast UUG start; F = PglD DTNB
COc1cccc(CNCCNC(=O)c2nonc2N)c1
  A: 6	B: .	C: -8	D: 17	E: -14	F: 10
COc1ccc(CCNC(=O)c2ccc(N3CCCC3=O)cc2)cc1
  A: 5	B: .	C: 9	D: 114*	E: -20	F: -5
CCOc1ccc(CCNC(=O)c2ccc(N3CCCC3=O)cc2)cc1OCC
  A: 6	B: .	C: .	D: .	E: .	F: .
C[C@H]1CN([C@@H](C)CO)C(=O)c2cc(NC(=O)Cc3ccccc3)ccc2O[C@H]1CN(C)C(=O)Nc1ccc2c(c1)OCO2
  A: 4	B: -12	C: 71*	D: -2	E: 8	F: 0
C[C@@H]1CN([C@@H](C)CO)C(=O)c2cc(NC(=O)C3CCCCC3)ccc2O[C@@H]1CN(C)C(=O)Nc1ccc2c(c1)OCO2
  A: -2	B: -1	C: 3	D: -34	E: 8	F: 1
C[C@@H]1CN([C@H](C)CO)C(=O)c2cc(NC(=O)C3CCCCC3)ccc2O[C@H]1CN(C)C(=O)Nc1ccc2c(c1)OCO2
  A: -10	B: 177*	C: -4	D: 5	E: -7	F: -7
